Laboratory results as given in patent publication US20050238634A1.

Conditions: oral 3H-paclitaxel 9 mg/kg; cyclosporin dose 2 × 5 mg/kg oral

SMILES: C/C=C/C[C@@H](C)C[C@H]1C(=O)N[C@@H](CC)C(=O)N(C)CC(=O)N(C)[C@@H](CC(C)C)C(=O)N[C@@H](C(C)C)C(=O)N(C)[C@@H](CC(C)C)C(=O)N[C@@H](C)C(=O)N[C@H](C)C(=O)N(C)[C@@H](CC(C)C)C(=O)N(C)[C@@H](CC(C)C)C(=O)N(C)[C@@H](C(C)C)C(=O)N1C [Cyclosporin F, cyclosporin F]
- % Absorption: 27.2%
